Laboratory results taken from patent US12428389B2, “Diarylamide compound and application thereof” (Sunshine Lake Pharma Co., Ltd., priority 2019, dated 2025).

Tests used:
human UT-B = biological target: T1, human UT-B (Homo sapiens, UniProt Q13336); assay: erythrocyte lysis model, human erythrocytes; assay type: cell-based
T1 construct: The erythrocytes were diluted with hypertonic PBS containing 1.25 M urea; endogenous in cells; host or cells: human erythrocytes
T1 sequence (Q13336 1-389): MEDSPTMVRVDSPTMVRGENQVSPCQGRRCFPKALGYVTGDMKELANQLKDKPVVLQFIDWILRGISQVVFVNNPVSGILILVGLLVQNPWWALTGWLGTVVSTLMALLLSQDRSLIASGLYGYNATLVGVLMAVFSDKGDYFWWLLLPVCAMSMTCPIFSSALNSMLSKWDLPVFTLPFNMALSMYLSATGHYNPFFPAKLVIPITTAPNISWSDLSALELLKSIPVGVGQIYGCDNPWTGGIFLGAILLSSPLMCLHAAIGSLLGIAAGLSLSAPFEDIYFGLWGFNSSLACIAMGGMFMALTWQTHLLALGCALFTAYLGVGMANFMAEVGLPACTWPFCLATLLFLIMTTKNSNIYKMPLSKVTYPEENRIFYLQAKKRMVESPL

UT-B [1] = biological target: T2, UT-B (Rattus norvegicus, UniProt P97689); assay: erythrocyte lysis model, rat erythrocytes; assay type: cell-based, rats
T2 construct: The erythrocytes were diluted with hypertonic PBS containing 1.25 M urea; endogenous in cells; host or cells: erythrocytes of SD rats
T2 sequence (P97689 1-384): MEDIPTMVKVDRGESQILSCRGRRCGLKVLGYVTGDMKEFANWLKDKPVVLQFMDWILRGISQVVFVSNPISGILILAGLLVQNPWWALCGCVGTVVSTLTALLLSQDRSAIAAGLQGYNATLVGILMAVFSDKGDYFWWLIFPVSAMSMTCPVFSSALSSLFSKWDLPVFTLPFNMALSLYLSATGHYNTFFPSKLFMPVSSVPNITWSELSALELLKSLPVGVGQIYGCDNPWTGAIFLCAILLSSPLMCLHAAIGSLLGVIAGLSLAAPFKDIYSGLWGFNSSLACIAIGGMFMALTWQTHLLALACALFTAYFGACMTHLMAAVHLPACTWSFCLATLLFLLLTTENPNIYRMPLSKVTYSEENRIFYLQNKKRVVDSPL

UT-B [2] = biological target: T3, UT-B (Mus musculus, UniProt Q8VHL0); assay: erythrocyte lysis model, mouse erythrocytes; assay type: cell-based, mice
T3 construct: The erythrocytes were diluted with hypertonic PBS containing 1.25 M urea; endogenous in cells; host or cells: erythrocytes of C57 mice
T3 sequence (Q8VHL0 1-384): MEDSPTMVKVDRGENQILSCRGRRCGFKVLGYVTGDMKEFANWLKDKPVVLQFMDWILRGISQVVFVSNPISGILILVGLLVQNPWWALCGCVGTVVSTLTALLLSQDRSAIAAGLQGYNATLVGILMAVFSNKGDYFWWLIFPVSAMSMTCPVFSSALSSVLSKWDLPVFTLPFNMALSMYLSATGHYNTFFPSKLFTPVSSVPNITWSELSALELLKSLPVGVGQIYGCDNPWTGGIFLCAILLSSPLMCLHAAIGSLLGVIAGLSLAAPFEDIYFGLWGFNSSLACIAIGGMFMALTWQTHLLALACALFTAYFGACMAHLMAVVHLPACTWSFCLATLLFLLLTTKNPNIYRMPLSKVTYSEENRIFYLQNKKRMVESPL

[3] = Activity level, class of the IC50 to human UT-B
[4] = IC50 human, concentration when the erythrocyte lysis rate of human was 50%

Row | Structure (SMILES) | IC50 (human UT-B; [3]) [µM] | IC50 (human UT-B; [4]) [µM] | IC50 (UT-B [1]) [µM] | IC50 (UT-B [2]) [µM] | IC50 (human UT-B; class of the IC50 to human UT-B, read-out: Activity level) [µM] | IC50 (human UT-B; concentration when the erythrocyte lysis rate of human was 50%, read-out: IC50 human) [µM] | IC50 (UT-B [1]; concentration when the erythrocyte lysis rate of rats was 50%, read-out: IC50 rats) [µM] | IC50 (UT-B [2]; concentration when the erythrocyte lysis rate of mice was 50%, read-out: IC50 mice) [µM]
1 | O=C(Nc1ccccc1)c1ccc([N+](=O)[O-])o1 [Example 5, N-phenyl-5-nitrofuran-2-carboxamide] | < 10 | 0.84 | 1.03 | 4.24 | – | – | – | –
2 | O=C(Nc1ccc(Cl)cc1)c1ccc([N+](=O)[O-])o1 [Example 39, N-(4-chlorophenyl)-5-nitrofuran-2-carboxamide] | 20 to 80 | 26.1 | 10.9 | 27.8 | – | – | – | –
3 | CC(=O)Nc1ccc(NC(=O)c2ccc(C(C)=O)o2)cc1 [Example 70, N-(4-acetamidophenyl)-5-acetylfuran-2-carboxamide] | – | – | – | – | < 10 | 0.054 | 0.11 | 0.85

Where two headings read alike, the source gives them in different places.
